System: 5-HT
Test: Microdialysis assays of monoamines: 5-HT level in hypothalamus dialysate of conscious rats
Type: in vivo, Sprague-Dawley rats
Settings: Test 2, average of three or more animals
Experimental: The tests were carried out as follows.
Sprague-Dawley rats (Harlan or Charles River) weighing 270-300 grams were surgically implanted with microdialysis probes under chloral hydrate/pentobarbital anesthesia (170 and 36 mg/kg i.p. in 30% propylene glycol, 14% ethanol) (Perry and Fuller, Effect of fluoxetine on serotonin and dopamine concentration in rat hypothalamus after administration of fluoxetine plus L-5-hydroxytryptophan, Life Sci., 50, 1683-90 (1992)). A David Kopf stereotaxic instrument was used to implant the probe unilaterally in the hypothalamus at coordinates rostral -1.5 mm, lateral -1.3 mm, and ventral -9.0 mm (Paxinos and Watson, 1986). After a 48 hour recovery period, rats were placed in a large plastic bowl with a mounted liquid swivel system (CMA/120 system for freely moving animals, Bioanalytical Systems, West Lafayette, IN). Filtered artificial cerebrospinal fluid (CSF) (150 mM NaCl, 3.0 mM KCl, 1.7 mM CaCl2, and 0.9 mM MgCl2) was perfused through the probe at a rate of 1.0 µl/min. The output dialysate line was fitted to a tenport HPLC valve with a 20 µl loop. At the end of each 30 minute sampling period, dialysate collected in the loop was injected on an analytical column (Spherisorb 3 µ ODS2, 2X150 mm, Keystone Scientific).
The method used to measure monoamines was as described by Perry and Fuller (1993). Briefly, dialysate collected in the 20 µl loop was assayed for 5-HT, NE and DA. The 20 µl injection went onto the column with a mobile phase which resolved NE, DA, and 5-HT: 75 mM potassium acetate, 0.5 mM ethylenediaminetetraacetic acid, 1.4 mM sodium octanesulfonic acid and 8% methanol, pH 4.9. The mobile phase for the amine column was delivered with a flow programmable pump at an initial flow rate of 0.2 ml/min increasing to 0.3 ml/min at 5 min then decreasing back to 0.2 ml/min at 26 min with a total run time of 30 min. Flow programming was used to elute the 5-HT within a 25 min time period. The electrochemical detector (EG&G, Model 400) for the amine column was set at a potential of 400 mV and a sensitivity of 0.2 nA/V. The data was collected and analyzed with a Hewlett-Packard HP1000 chromatography system which measured peak heights and calculated sample concentrations. Basal levels were measured for at least 90 minutes prior to drug administration.
Extracellular levels of the amines in microdialysates were calculated by comparing peak heights with those of 50 pmole standards. The mean value of the four samples immediately preceding drug administration served as the basal level for each experiment and data was converted to percent of basal. Paired t-tests were used to compare the mean of the basal values from the time point immediately preceding drug administration to those of each time point thereafter. […]

## CC(C)NCC(O)COc1cccc2[nH]ccc12 (single isomer, unassigned; (-)) [(-)-pindolol, 4-(2-hydroxy-3-isopropylaminopropoxy)-indole]
120 min (time of first (-)-pindolol dose, 5 mg/kg)
  5-HT, percent of baseline: 80%
150 min, (-)-pindolol 5 mg/kg at 120 min
  5-HT, percent of baseline: 90%
180 min, (-)-pindolol 5 mg/kg at 120 min
  5-HT, percent of baseline: 110%
210 min, (-)-pindolol 5 mg/kg at 120 min
  5-HT, percent of baseline: 100%
